# Reported melting point values for industrial, environmental and drug-like chemicals

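The numbers are reported measurements, compiled and curated for the OPERA QSAR suite. One number stands for a compound and property, with no spread given. Conditions of the individual experiments are not part of the data. The measured form (salt, isomer or mixture) is not always the one drawn. Some upstream entries may be estimates or bounds without being marked so.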

Melting points are in °C. "–" marks a cell with nothing listed here.

melting point (°C),structure (SMILES),name
203,Cn1c(=O)n(CC(=O)O)c2ccccc21,"(3-Methyl-2-oxo-2,3-dihydro-1H-benzimidazol-1-yl)acetic acid"
277,O=C(O)c1cn[nH]c1-c1ccc(Cl)cc1,3-(4-chlorophenyl)-1H-pyrazole-4-carboxylic acid
79,CCCCc1ccc(CC(=O)O)cc1,(4-butylphenyl)acetic acid
93,C=CCNC(=O)c1ccccc1N,N-allyl-2-aminobenzamide
118,NC(=O)NCC1CC1,(cyclopropylmethyl)urea
131,COC(=O)C(Cc1c[nH]c2ccccc12)NC(=O)CCl (stereo unspecified),Methyl N-(chloroacetyl)tryptophanate
83,Clc1ccc(-c2ccc(Cl)cc2Cl)c(Cl)c1,–
78,CC(C)c1cc(C(C)C)c([N+](=O)[O-])cc1[N+](=O)[O-],"1,5-Dinitro-2,4-di(propan-2-yl)benzene"
165,CC(=O)N1CCc2ccccc2C1CC(=O)O (stereo unspecified),"(2-Acetyl-1,2,3,4-tetrahydroisoquinolin-1-yl)acetic acid"
160,Cc1cc(N)ccc1N1CCCC1=O,1-(4-amino-2-methylphenyl)pyrrolidin-2-one
71.5,Cc1ccccc1NCCNc1ccccc1C,"1,2-Ethanediamine, N,N'-bis(2-methylphenyl)-"
175,S=c1[nH]nc(Nc2ccccc2Cl)s1,"5-(2-Chloroanilino)-1,3,4-thiadiazole-2(3H)-thione"
264,NNc1ncnc2sc(-c3ccccc3)cc12,"4-hydrazino-6-phenylthieno[2,3-d]pyrimidine"
91,Cc1cc(CN)ccc1C(N)=O,4-(Aminomethyl)-2-methylbenzamide
70,COc1ccc(C(=O)C(Cl)c2ccc(OC)cc2)cc1 (stereo unspecified),"2-Chloro-1,2-bis(4-methoxyphenyl)ethan-1-one"
165,OCc1cc(Br)cc(CO)c1O,"4-Bromo-2,6-bis(hydroxymethyl)phenol"
114.5,Cc1nc([N+](=O)[O-])cn1CCC#N,3-(2-Methyl-4-nitro-1H-imidazol-1-yl)propanenitrile
33.5,COc1ccc(CN)c(F)c1F,"2,3-Difluoro-4-methoxybenzylamine"
181,Nc1c2c(nn1-c1ccccc1)CCC2,"2-Phenyl-2,4,5,6-tetrahydrocyclopenta[c]pyrazol-3-amine"
292,O=C(O)c1c2c(nc3ccc(Br)cc13)CCCC2,"7-bromo-1,2,3,4-tetrahydroacridine-9-carboxylic acid"
200,c1ccc2c(c1)NC1=NCCN12,"2,3-Dihydro-1H-benzo[d]imidazo[1,2-a]imidazole"
124,O=C(O)CCC(=O)c1ccc2c(c1)CCC2,"4-(2,3-dihydro-1H-inden-5-yl)-4-oxobutanoic acid"
169,N#Cc1ccccc1-c1ccccc1C(=O)O,"2'-Cyano[1,1'-biphenyl]-2-carboxylic acid"
204,CC(C)(C)N(NC(=O)c1ccccc1)C(=O)c1cccc(C(F)(F)F)c1,N'-Benzoyl-N-tert-butyl-3-(trifluoromethyl)benzohydrazide
85,CNC(=O)Cc1ccc(N)cc1,2-(4-Aminophenyl)-N-methylacetamide
220,Cn1c(=O)c2cc(N)cnc2n(C)c1=O,"6-Amino-1,3-dimethylpyrido[2,3-d]pyrimidine-2,4(1H,3H)-dione"
133,O=C(O)c1ccc(NC(=O)c2ccco2)cc1,4-(2-Furoylamino)benzoic acid
192,Nc1cc(-c2ccc(Cl)cc2)nn1-c1ccccc1,3-(4-Chlorophenyl)-1-phenyl-1H-pyrazol-5-amine
137,COC(=O)c1cc2ccc(OCc3ccccc3)cc2[nH]1,methyl 6-(benzyloxy)-1H-indole-2-carboxylate
132,Cc1oc(C)c(C(=O)O)c1C,"2,4,5-trimethyl-3-furoic acid"

Values as listed in the OPERA 2.9 repository of K. Mansouri.